Test results from paper PMC9370035, “Identification of 3-Oxindole Derivatives as Small Molecule HIV-1 Inhibitors Targeting Tat-Mediated Viral Transcription” (Molecules, 2022).

The molecules below were run on HIV-1NL4-3 (assay: HIV-1 infectivity assay in TZM-bl cells (F-Luc under HIV-1 LTR)).
Assay type: cell-based
From the text: TZM-bl cells (also referred as JC53BL-13) expressing human CD4, CXCR4, and CCR5 in order to facilitate HIV-1 infection, which contain the firefly luciferase (F-Luc) gene under the control of HIV-1 long terminal repeat (LTR) promoter was used to determine inhibitory effect of the compounds on HIV-1 infection, as described previously with minor modifications. […] Without replacement of a culture medium, the cells were then infected with the HIV-1NL4-3 strain at a multiplicity of infection (MOI) of 1 to determine the exact inhibitory effect of compounds on a single round infection. After 48 h, the inhibitory effect of the compounds was determined using a Bright Glo luciferase assay kit (Promega). The infectivity data are presented as a percentage relative to the DMSO control (vehicle). The inhibitory effects of the compounds on viral replication were determined with some minor modifications, as described previously. […] PBMCs were pre-activated with phytohemagglutinin M (PHA-M) for 3 days. The pre-activated 4 × 10^5 of PBMCs were washed with fresh media to remove excess PHA-M and then infected with HIV-1NL4-3 or HIV-1AD8 as that of A3.01 infection.

Compound	SI (selectivity index, the ratio of IC50 to CC50)
CCOC(=O)C1(C/C=C/Cl)Nc2cccc(C)c2C1=O (stereo not shown) [Compound 6a, Ethyl (E)-2-(3-chloroallyl)-4-methyl-3-oxindole-2-carboxylate]	6.38
COC(=O)C1(C/C=C/Cl)Nc2cc(C)cc(C)c2C1=O (stereo not shown) [Compound 6f, Methyl (E)-2-(3-chloroallyl)-4,6-dimethyl-3-oxindole-2-carboxylate]	111.37
COC(=O)C1(CC=C(Cl)Cl)Nc2cc(C)cc(C)c2C1=O (stereo not shown) [Compound 6g, Methyl 2-(3,3-dichloroallyl)-4,6-dimethyl-3-oxindole-2-carboxylate]	34.19
O=C1Nc2ccc(Cl)cc2[C@@](C#CC2CC2)(C(F)(F)F)O1 [EFV, efavirenz, reference compound]	>683.86
